Legend:
[1] = molecular target: human μ opiate receptor (Homo sapiens, UniProt P35372); experiment: μ opiate receptor binding assay with [3H]-naloxone (WGA-SPA beads); details: for Ki: read-out: Ki (μ) mean [μm], mean; for % inhibition (μ) [1 μM]: test concentration 1 μM
[2] = molecular target: ORL1 receptor (Homo sapiens, UniProt P41146); experiment: ORL1 receptor binding assay with 3H-nociceptin/orphanin FQ (WGA-SPA beads); details: for Ki: read-out: Ki (ORL1) mean, mean; for % inhibition (ORL1) [1 μM]: test concentration 1 μM

Amino acid sequences for entries named in this document (tags omitted). A change or cut given only in a name is not applied to a line headed by its entry.
UniProt P35372, whole entry, looked up: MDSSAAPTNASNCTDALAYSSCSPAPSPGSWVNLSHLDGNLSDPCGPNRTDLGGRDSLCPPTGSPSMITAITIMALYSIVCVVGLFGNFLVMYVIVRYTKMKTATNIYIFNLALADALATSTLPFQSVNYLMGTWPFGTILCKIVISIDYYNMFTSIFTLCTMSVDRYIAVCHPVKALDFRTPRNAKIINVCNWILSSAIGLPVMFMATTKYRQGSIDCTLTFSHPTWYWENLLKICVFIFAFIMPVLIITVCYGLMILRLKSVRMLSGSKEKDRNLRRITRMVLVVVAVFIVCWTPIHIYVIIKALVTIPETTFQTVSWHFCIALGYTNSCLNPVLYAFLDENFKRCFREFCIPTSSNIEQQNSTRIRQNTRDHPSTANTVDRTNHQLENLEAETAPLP
UniProt P41146: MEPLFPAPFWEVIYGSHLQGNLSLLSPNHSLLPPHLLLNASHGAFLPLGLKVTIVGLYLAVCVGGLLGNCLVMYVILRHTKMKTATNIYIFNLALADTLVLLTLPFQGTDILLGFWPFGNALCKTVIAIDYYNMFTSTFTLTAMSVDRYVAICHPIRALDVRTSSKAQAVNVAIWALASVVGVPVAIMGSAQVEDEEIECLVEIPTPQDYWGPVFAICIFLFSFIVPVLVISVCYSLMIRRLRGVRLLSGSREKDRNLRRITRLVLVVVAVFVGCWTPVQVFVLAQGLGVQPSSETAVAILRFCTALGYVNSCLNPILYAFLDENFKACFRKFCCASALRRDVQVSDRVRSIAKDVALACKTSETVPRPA

| Compound | Ki [1] [µM] | % inhibition (μ) [1 μM] [1] [%] | Ki [2] [µM] | % inhibition (ORL1) [1 μM] [2] [%] | % inhibition (μ) [1 μM] ([1]; 1 µM) [%] | % inhibition (ORL1) [1 μM] ([2]; 1 µM) [%] |
| --- | --- | --- | --- | --- | --- | --- |
| CCCC(=O)N1CCC2(CCC(CC3CCCC3)(N(C)C)CC2)C1 (stereo not drawn) | 0.0265 | 96.5 | 0.44 | 46 | – | – |
| CCCC(=O)N1CCC2(CCC(c3ccccc3)(N3CCC3)CC2)C1 (stereo not drawn) | 1.21 | 43.5 | 1.52 | 24.5 | – | – |
| CN(C)C1(c2cccs2)CCC2(CCN(C(=O)C(C)(C)O)C2)CC1 (stereo not drawn) | 0.052 | 90.5 | 0.082 | 55 | – | – |
| CN(C)C1(c2ccccc2)CCC2(CCN(CCC3(C#N)CC3)C2)CC1 (stereo not drawn) | 0.00325 | 98.5 | 0.0119 | 89 | – | – |
| CN(C)C1(c2ccccc2)CCC2(CCN(CCC3(O)CC3)C2)CC1 (stereo not drawn) | 0.00255 | 99 | 0.0034 | 95 | – | – |
| Cc1ccc(C2(N(C)C)CCC3(CCNC3)CC2)s1 (stereo not drawn) | 0.13 | 79.5 | – | 57.5 | – | – |
| CN(C)C1(c2cccs2)CCC2(CCN(C(=O)C3CCC3)C2)CC1 (stereo not drawn) | 0.00805 | – | 0.00845 | 73 | – | – |
| CNC1(c2cccs2)CCC2(CCN(C(=O)CCOC)C2)CC1 (stereo not drawn) | 0.0385 | 92 | 0.12 | 44.5 | – | – |
| CCCCC1(N(C)C)CCC2(CCN(C(=O)CCC3CC3)C2)CC1 (stereo not drawn) | 0.016 | 98 | 0.0405 | 66.5 | – | – |
| CN(C)C1(c2cccs2)CCC2(CCN(CC3CCOCC3)C2)CC1 (stereo not drawn) | 0.0049 | 99 | 0.00445 | 95 | – | – |
| CCCC(=O)N1CCC2(CCC(CC3CCCCC3)(N(C)C)CC2)C1 (stereo not drawn) | 0.0265 | 92 | 24100 | 12 | – | – |
| CNC1(c2cccs2)CCC2(CCN(CCC3CCC3)C2)CC1 (stereo not drawn) | 0.00165 | 101 | 0.00435 | 93.5 | – | – |
| CN(C)C1(c2cccs2)CCC2(CCN(C(=O)C3(O)CCC3)C2)CC1 (stereo not drawn) | 0.00545 | 99.5 | 0.0185 | 81.5 | – | – |
| CN(C)C1(c2ccccc2)CCC2(CCN(C(=O)CCC3(C#N)CC3)C2)CC1 (stereo not drawn) | 0.00106 | 99 | 0.00073 | 96 | – | – |
| CN(C)C1(c2ccccc2)CCC2(CCN(C(=O)C3(C#N)CCC3)C2)CC1 (stereo not drawn) | 0.03 | 93 | 0.073 | 72 | – | – |
| COCC1(C(=O)N2CCC3(CCC(c4ccccc4)(N(C)C)CC3)C2)CCC1 (stereo not drawn) | 0.0195 | 96 | 0.0275 | 74 | – | – |
| CN(C)C1(c2cccs2)CCC2(CCN(CCC(C)(C)O)C2)CC1 (stereo not drawn) | 0.00255 | 98 | 0.0035 | 94 | – | – |
| CC(C)C(=O)N1CCC2(CCC(c3ccccc3)(N(C)C)CC2)C1 (stereo not drawn) | 0.024 | 92 | 0.0595 | 66 | – | – |
| COC(C)(C)C(=O)N1CCC2(CCC(C3CCCC3)(N(C)C)CC2)C1 (stereo not drawn) | 0.055 | 90 | 0.91 | 26 | – | – |
| CCCCN1CC2(CCC(C3CCCC3)(N(C)C)CC2)CC1=O (stereo not drawn) | 0.0087 | 99.5 | 0.0635 | 75.5 | – | – |
| CN(C)C1(c2ccccc2)CCC2(CCN(CCCC3CC3)C2)CC1 (stereo not drawn) | 0.00145 | 98 | 0.00063 | 95 | – | – |
| CN(C)C1(c2cccs2)CCC2(CCN(C(=O)C3CC3)C2)CC1 (stereo not drawn) | 0.0115 | 80.5 | 0.085 | 48 | – | – |

| Compound | Ki [1] [µM] | % inhibition (μ) [1 μM] [1] [%] | Ki [2] [µM] | % inhibition (ORL1) [1 μM] [2] [%] | % inhibition (μ) [1 μM] ([1]; 1 µM) [%] | % inhibition (ORL1) [1 μM] ([2]; 1 µM) [%] |
| --- | --- | --- | --- | --- | --- | --- |
| (8-Benzyl-3-butyl-3-azaspiro[4.5]decan-8-yl)-dimethylamine [10] | 0.41 | – | 2.02 | – | 67 | 27.67 |
| Cc1ccc(C2(N(C)C)CCC3(CCN(C(=O)CC(C)C)C3)CC2)s1 (stereo not drawn) | 0.0048 | 100.5 | 0.027 | 84.5 | – | – |
| COC1(CCN2CC3(CCC(C4CCCC4)(N(C)C)CC3)CC2=O)CCC1 (stereo not drawn) | 0.00105 | 99 | 0.027 | 83 | – | – |
| Cc1ccc(C2(N(C)C)CCC3(CCN(C(=O)C(C)C)C3)CC2)s1 (stereo not drawn) | 0.045 | 86 | 0.15 | 26 | – | – |
| CCCCN1CCC2(CCC(Cc3ccccc3)(N(C)C)CC2)C1 (stereo not drawn) | 0.0045 | 7.4 | 0.17 | 92.5 | – | – |
| COC1(CN2CCC3(CCC(c4cccs4)(N(C)C)CC3)C2)CC1 (stereo not drawn) | 0.0039 | 98.5 | 0.0039 | 94 | – | – |
| CCCCN1CCC2(CCC(CC3CCCCC3)(N(C)C)CC2)C1 (stereo not drawn) | 0.0053 | 102.5 | 0.8 | 35.5 | – | – |
| CN(C)C1(c2ccccc2)CCC2(CCN(C(=O)CC3CCOC3)C2)CC1 (stereo not drawn) | 0.0026 | 98 | 0.0026 | 91.5 | – | – |
| CN(C)C1(c2cccs2)CCC2(CCN(C(=O)C3CCOCC3)C2)CC1 (stereo not drawn) | 0.0215 | 93.5 | 0.036 | 77 | – | – |
| COCC1(C(=O)N2CCC3(CCC(c4cccs4)(N(C)C)CC3)C2)CC1 (stereo not drawn) | 0.0135 | 96 | 0.0865 | 78.5 | – | – |
| CCOC(C)CC(=O)N1CCC2(CCC(c3ccccc3)(N(C)C)CC2)C1 (stereo not drawn) | 0.0026 | 97.5 | 0.002 | 96.5 | – | – |
| CCCCN1CCC2(CCC(CC3CCCC3)(N(C)C)CC2)C1 (stereo not drawn) | 0.0068 | 103 | 0.275 | 57.5 | – | – |
| COCCC(=O)N1CCC2(CCC(c3ccccc3)(N(C)C)CC2)C1 (stereo not drawn) | 0.0059 | 97.5 | 0.0088 | 92 | – | – |
| CN(C)C1(c2ccccc2)CCC2(CCN(CCC(C)(C)C#N)C2)CC1 (stereo not drawn) | 0.002 | 99 | 0.0117 | 88 | – | – |
| CCOC(C)CN1CC2(CCC(c3ccccc3)(N(C)C)CC2)CC1=O (stereo not drawn) | 0.0043 | 99 | 0.0015 | 95.5 | – | – |
| CN(C)C1(c2ccccc2)CCC2(CC1)CC(=O)N(CCC1COC1)C2 (stereo not drawn) | 4380 | 58.5 | 0.26 | 37.5 | – | – |
| COC(C)(C)CN1CC2(CCC(c3cccs3)(N(C)C)CC2)CC1=O (stereo not drawn) | 0.0027 | 104 | 0.0018 | 96 | – | – |
| CN(C)C1(C2CCCC2)CCC2(CCN(C(=O)C3CC3)C2)CC1 (stereo not drawn) | 0.052 | 86.5 | 0.185 | 45 | – | – |
| CN(C)C1(c2ccccc2)CCC2(CCN(C(=O)C3CC3)C2)CC1 (stereo not drawn) | 0.0205 | 89.5 | 0.02 | 71.5 | – | – |
| CC(=O)N1CCC2(CCC(Cc3ccccc3)(N(C)C)CC2)C1 (stereo not drawn) | – | – | 2.16 | 16 | – | – |
| CC(=O)N1CCC2(CCC(Cc3ccccc3)(N(C)C)CC2)C1 (single isomer, unassigned) | – | – | – | 25 | – | – |

From patent publication US10202345B2, “Substituted azaspiro(4.5)decane derivatives” (priority 2014, dated 2019)
